System: Soft Rot of Chinese Cabbage Caused by E. carotovora
Format: in vivo, Erwinia carotovora (on Chinese cabbage)
Settings: sprayed at 500 ppm 16 hours after inoculation

Compound: CCn1cc(C(=O)O)c(=O)c2ccc(C)nc21 [Nalidixic acid, nalidixic acid, reference compound]
- Severity of Disease: 100

— US4117136A, “Systemic antimicrobial quinolines for plant disease” (Sumitomo Chemical Company, Ltd., priority 1976, dated 1978)
